Reference: patent publication US9062289B2, “Differentiation of primate pluripotent stem cells to cardiomyocyte-lineage cells” (Asterias Biotherapeutics, Inc., priority 2005, dated 2015)

Tested on: H7 hES cells
Assay: Differentiation of H7 hES cells to cardiomyocyte-lineage cells with BMP-2 or BMP-4 (αMHC expression, FIG. 4)
Assay type: cell-based, human
Details: BMP at 25, 50 and 100 ng/ml after Activin A, 24-well plate, triplicate; control without Activin, BMP or IGF-I
Procedure: Growth factor treatment: After 6 days of growth as described above, the cells' media was removed and replaced with RPMI plus 1× B27 supplement (Invitrogen) plus 50 ng/ml Activin A (R&D Systems). After 18-24 hours, the medium was removed and replaced with RPMI plus 1× B27 supplement plus 50 ng/ml BMP-4 (R&D Systems). After a total of 4 days in BMP-4-containing medium, the medium was removed and replaced with RPMI plus 1× B27 supplement plus 50 ng/ml IGF-1 (R&D Systems) without the Activin or BMP. The cultures were re-fed every 2-3 days by removing spent medium and replacing it with fresh RPMI plus 1× B27 supplement plus 50 ng/ml IGF-1 without the Activin or BMP.
A differentiation of H7 hES cells was performed as in Example 1, except that the differentiation was performed in a 24-well plate instead of a 6-well plate and the volume for the factors was 1 ml per well. In addition, BMP-2 and BMP-4 were used at concentrations of 25 ng/ml, 50 ng/ml, and 100 ng/ml. Each concentration was done in triplicate.

B1: BMP-2: Bone Morphogenetic Protein, a polypeptide growth factor of the TGF-β superfamily (protein, UniProt P12643 283-396, looked up)
Bone morphogenetic protein 2: QAKHKQRKRLKSSCKRHPLYVDFSDVGWNDWIVAPPGYHAFYCHGECPFPLADHLNSTNHAIVQTLVNSVNSKIPKACCVPTELSAISMLYLDENEKVVLKNYQDMVVEGCGCR
B1 was tested, and the “effectiveness in the differentiation protocol (expression of αMHC as relative fold of the control)” value was “effective”.
